Reference: PMC11859980, “Tailored Intranasal Albumin Caged Selegiline-α Synuclein siRNA Liposome with Improved Efficiency in Parkinson’s Model” (Pharmaceutics, 2025)

System: MAO-B
Format: in vivo, rats
Conditions: rotenone 3 mg/kg/day IP 11 days; treatment days 12 and 20; day 30; ELISA

**Q.** `C#CCN(C)[C@H](C)Cc1ccccc1` [IV Sel solution, Selegiline] was tested. Which “MAO-B level in brain tissue” value did it give?
**A.** Its value is 170.83 ± 13.93 ng/g.
